Values quoted from earlier work as cited in US5393772A, “Use of, and method of treatment using, hydroxycarbazole compounds for inhibition of smooth muscle migration and proliferation” (Boehringer Mannheim Pharmaceuticals Corporation, priority 1993, dated 1995).
Like-named read-outs stand apart in the source and are kept apart here.

Tests used:
[1] = system: acute myocardial infarction; settings: canine; cited from earlier work
β-adrenoceptor = settings: cited from earlier work
α1-adrenoceptor = settings: cited from earlier work
[2] = without concomitant reflex changes in heart rate; cited from earlier work
[3] = system: acute myocardial infarction; settings: porcine; cited from earlier work
calcium channel = settings: at higher concentrations; cited from earlier work
[4] = system: acute myocardial infarction; settings: rat; cited from earlier work
smooth muscle = settings: copending application Ser. No. 08/026892; cited from earlier work

In the case of COc1ccccc1OCCNCC(O)COc1cccc2[nH]c3ccccc3c12 (centres unmarked) [Carvedilol, 1-(carbazol-4-yloxy-3-[[2-(o-methoxyphenoxy)ethyl]amino]-2-propanol)], the infarct size [1] is given as “markedly reduces infarct size”, the β-adrenoceptor antagonism (β-adrenoceptor) is given as “competitive β-adrenoceptor antagonist” and the “vasodilatory action from α1-adrenoceptor blockade” value (α1-adrenoceptor) is given as “result primarily from α1 -adrenoceptor blockade”. The “total peripheral vascular resistance” value [2] was “decreasing total peripheral vascular resistance without causing the concomitant reflex changes in heart rate”, the infarct size [3] was “markedly reduces infarct size” and the calcium channel antagonism (calcium channel) was “calcium channel antagonist at higher concentrations”. The infarct size [4] was “markedly reduces infarct size” and the “smooth muscle migration and proliferation” value (smooth muscle) was “inhibiting of smooth muscle migration and proliferation”.
